Assay results: patent US20230140635A1, “3-(2-(Aminoethyl)-Indol-4-ol Derivatives, Methods of Preparation Thereof, and the Use as 5-HT2 Receptor Modulators” (priority 2020, published 2023)

Amino acid sequences for entries named in this document (tags omitted).
UniProt P28223, whole entry: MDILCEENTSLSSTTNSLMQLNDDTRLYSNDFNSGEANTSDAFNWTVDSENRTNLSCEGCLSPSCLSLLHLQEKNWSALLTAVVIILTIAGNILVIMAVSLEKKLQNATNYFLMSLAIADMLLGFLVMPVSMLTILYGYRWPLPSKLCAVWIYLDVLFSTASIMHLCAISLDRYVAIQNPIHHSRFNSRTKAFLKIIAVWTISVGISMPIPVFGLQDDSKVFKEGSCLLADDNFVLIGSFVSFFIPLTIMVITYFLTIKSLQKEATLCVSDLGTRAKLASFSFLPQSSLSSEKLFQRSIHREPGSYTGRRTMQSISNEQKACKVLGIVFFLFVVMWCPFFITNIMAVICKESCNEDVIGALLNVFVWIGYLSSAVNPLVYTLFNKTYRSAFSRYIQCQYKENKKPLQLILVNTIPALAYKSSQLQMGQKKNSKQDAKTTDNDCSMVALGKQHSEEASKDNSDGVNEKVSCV
UniProt P41595, whole entry: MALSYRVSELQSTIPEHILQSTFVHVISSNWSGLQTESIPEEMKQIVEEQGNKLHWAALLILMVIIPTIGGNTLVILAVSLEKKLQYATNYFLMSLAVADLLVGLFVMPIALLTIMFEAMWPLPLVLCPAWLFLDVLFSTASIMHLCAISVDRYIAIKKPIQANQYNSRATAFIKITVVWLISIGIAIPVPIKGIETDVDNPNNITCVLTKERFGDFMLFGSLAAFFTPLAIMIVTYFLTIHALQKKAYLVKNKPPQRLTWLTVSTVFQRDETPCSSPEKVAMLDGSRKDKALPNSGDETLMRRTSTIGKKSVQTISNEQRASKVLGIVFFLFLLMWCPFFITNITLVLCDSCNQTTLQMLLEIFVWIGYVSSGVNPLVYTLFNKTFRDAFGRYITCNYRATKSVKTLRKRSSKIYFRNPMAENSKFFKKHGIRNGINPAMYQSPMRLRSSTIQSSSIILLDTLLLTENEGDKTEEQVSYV

Key:
[1] = molecular target: 5-HT2A (Homo sapiens, UniProt P28223); assay: 5-HT2 Gq-Dissociation BRET assay; type: cell-based; set-up: expressed in transfected cells; host or cells: HEK293T
[2] = molecular target: 5-HT2B (Homo sapiens, UniProt P41595); settings: read-out: IC50 nM 5-HT2 Gq Dissociation BRET assay, 5-HT2B

Compound: CN(C)CCc1c[nH]c2cccc(O)c12 [Psilocin, psilocin]
- % efficacy vs 5-HT@ 100%, 5-HT2A [1]: 8.34 nM (82%)
- IC50 [2]: 1.07 nM
